Assay results published in PubChem BioAssay AID488890 (Southern Research Specialized Biocontainment Screening …, 2010).
Only a part is listed here, and it is no random draw. Records with an inconclusive call do not appear. How the calls were made is not given here.

Assay: growth inhibition of non-replicating M. tuberculosis (AID 488890);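 further: plate controls were DMSO cells for no effect and high antibiotic wells for full effect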
Conditions: Mycobacterium tuberculosis non-replicating, at 25 µM, stronger effect = higher value

| Structure (SMILES) | inhibition [%] |
| --- | --- |
| CCC(=O)N(c1ccccc1)C1(COC)CCN(CCn2nnn(CC)c2=O)CC1 | -7.91 |
| CCC(=O)N(c1ccccc1)C1(COC)CCN(CCc2cccs2)CC1 | -12.9 |
